Patent US20090155339A1, “Biocompatible Antimicrobial Filament Material” (AESCULAP AG & CO. KG, priority 2005, published 2009)

With PHMB stearate as the substance, how does the Solubility in chloroform (chloroform) read?
Its Solubility in chloroform is “at most 30 g/l”.

What about the Solubility in water (water) of the same substance?
The Solubility in water was < 100 µg/mL.
